# DENV2 CPE rescue – inhibitors of DENV2 cytopathic effect, primary screen, cell-based, plate reader, single concentration | CPE inhibition, % at 9.99 µM | hit rate 1.7% among 350,000 | DENV2-infected cells, cytopathic effect rescue; in the data active means CPE inhibition above about 20%, passing the limit was not always enough; inconclusive means no clear call, values can overlap the other calls; tested in BHK-21 cells;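 further: 0% = median of neutral control wells and 100% = median of positive control wells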
# E-sel inducer – E-selectin induction in HUVECs, primary screen, imaging, HUVEC, immunofluorescence imaging, single point. activation, % at 7.58 µM. hit rate 0.37% among 260,000. P16581. normalized: neutral wells 0, TNF-alpha wells 100;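 active means mean E-selectin-positive cell signal at least 10% of the positive control, reached in at least 60% of replicates, without over 20% cell loss; inconclusive means no rule given, readout overlaps actives, possibly toxicity-flagged; inactive means the rest, including those meeting only one limit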
#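 Read-out: % PE-positive cells | Test system: HUVEC | Doses: One compound dose added by pin transfer | Buffer or medium: EGM-2 over gelatin coat | Signal: Immunofluorescence imaging | Benchmarks: TNF-alpha, DMSO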
# Cneo AK release – Cryptococcus neoformans cell lysis inducers, primary screen, AK release luminescence, single concentration. hit rate 0.2% among 360,000. C. neoformans lysis, adenylate kinase release luminescence, 4 h; normalised: neutral wells 0, clomiphene wells 100. lysis activity, % at 15 µM;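 active means mean lysis activity across replicates of at least 80%, whatever share of replicates individually reach that level; inactive means mean lysis activity below 80%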
#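 Material – log-phase Cryptococcus neoformans yeast cells · Input – 5 × 10^6 yeast cells/mL · Medium – fresh YPD growth medium · Doses – single compound concentration per well · Timing – static 4 h at 37 °C with compound, 1 h detection · Detection – adenylate kinase release luminescence · Read-out – signal increase indicating cell lysis · Control set – Clomiphene as positive lysis control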
# Yeast UUG start – yeast start codon fidelity modulation | S. cerevisiae UUG-firefly luciferase reporter, luminescence/redox ratio | activity score, % at 18.7 µM | hit rate 0.13% among 350,000 | AID 602363;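 active means replicate mean at a twofold rise or more, about +100% in these data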;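 further: firefly luciferase made from a UUG start codon reports start codon fidelity; reporter light over untreated wells divided by growth signal over untreated wells; some hits fall short of that in this replicate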
# * hit, by the source's call; ? = inconclusive; . = not tested or not shown; ! = a repeat was not active. Sampled rows, rich in hits. Any-hit rate of the full collection: about 1.8%.
# Field names – A = DENV2 CPE rescue; B = E-sel inducer; C = Cneo AK release; D = Yeast UUG start
CC(C)OC(=O)N(C)C[C@H]1OCc2cn(nn2)CCCC(=O)N([C@@H](C)CO)C[C@H]1C
  A = 3.3; B = -0.1; C = -11.7; D = .
CCCNC(=O)N1C[C@H](C)[C@@H](OC)CN(C)C(=O)c2cc(NC(=O)CC)ccc2OC[C@@H]1C
  A = 19.6; B = 0.1; C = 0.1; D = -8.5
C[C@@H]1CN([C@H](C)CO)C(=O)c2cccc(NC(=O)Nc3ccc4c(c3)OCO4)c2O[C@H]1CN(C)Cc1ccc(Cl)c(Cl)c1
  A = -9.8; B = -2.0; C = -3.4; D = 0.1
N#Cc1ccc(-c2ccc3c(c2)[C@@H]2[C@@H](CCN2C(=O)c2ccc(F)cc2)[C@@H](CO)N3)cc1
  A = -18.6; B = 0.5; C = -11.3; D = 3.6
C[C@H](CO)N1C[C@H](C)[C@@H](CN(C)C(=O)c2ccc(N3CCN(C)CC3)cc2)OCc2cn(nn2)CCCC1=O
  A = 12.6; B = 0.1; C = 45.2; D = 11.0
C[C@H]1CN([C@@H](C)CO)C(=O)CCCn2cc(nn2)CO[C@@H]1CN(C)C(=O)c1ccc(N2CCN(C)CC2)cc1
  A = 64.4*!; B = 0.5; C = 47.6; D = 2.0
COc1cccc(NC(=O)N(C)C[C@H]2OCc3cn(nn3)CCCC(=O)N([C@H](C)CO)C[C@H]2C)c1
  A = .; B = 0.1; C = .; D = .
COc1cccc(NC(=O)N(C)C[C@@H]2OCc3cn(nn3)CCCC(=O)N([C@H](C)CO)C[C@H]2C)c1
  A = 37.7*!; B = -0.2; C = 2.0; D = -3.7
Cn1cnc(S(=O)(=O)N2CCCCN3[C@@H](CO)[C@H](c4ccc(C#CC5CC5)cc4)[C@@H]3C2)c1
  A = -0.2; B = .; C = 1.2; D = 6.5
C[C@H](CO)N1C[C@H](C)[C@@H](CN(C)Cc2ccc(C(F)(F)F)cc2)Oc2ccc(NC(=O)CCCCCC(=O)Nc3ccccc3N)cc2CC1=O
  A = 13.3; B = 0.5; C = 4.2; D = -10.4
C[C@@H]1CN([C@@H](C)CO)C(=O)Cc2cc(NC(=O)CCCCCC(=O)Nc3ccccc3N)ccc2O[C@H]1CN(C)Cc1ccc2c(c1)OCO2
  A = 0.3; B = .; C = .; D = .
C[C@@H]1CN([C@@H](C)CO)C(=O)Cc2cc(NC(=O)CCCCCC(=O)Nc3ccccc3N)ccc2O[C@@H]1CN(C)Cc1ccc(C(F)(F)F)cc1
  A = 95.7*; B = 0.1; C = 1.2; D = -13.6
C[C@H]1CN([C@@H](C)CO)C(=O)Cc2cc(NC(=O)CCCCCC(=O)Nc3ccccc3N)ccc2O[C@H]1CN(C)Cc1ccc2c(c1)OCO2
  A = 3.1; B = -4.8; C = 93.5*; D = 16.0
COc1cccc(S(=O)(=O)Nc2ccc3c(c2)[C@@H]2C[C@@H](CC(=O)NCc4cccc(F)c4)O[C@H](CO)[C@@H]2O3)c1
  A = -2.6; B = -0.4; C = 105.9*; D = 11.8
COc1cccc(S(=O)(=O)Nc2ccc3c(c2)[C@H]2C[C@@H](CC(=O)NC4CCCCC4)O[C@@H](CO)[C@H]2O3)c1
  A = -5.5; B = -0.1; C = 101.3*; D = .

# The closing 2 compounds of the section above come first, to join the parts:
# Field names – A = DENV2 CPE rescue; B = E-sel inducer; C = Cneo AK release; D = Yeast UUG start
COc1cccc(S(=O)(=O)Nc2ccc3c(c2)[C@@H]2C[C@@H](CC(=O)NCc4cccc(F)c4)O[C@H](CO)[C@@H]2O3)c1
  A = -2.6; B = -0.4; C = 105.9*; D = 11.8
COc1cccc(S(=O)(=O)Nc2ccc3c(c2)[C@H]2C[C@@H](CC(=O)NC4CCCCC4)O[C@@H](CO)[C@H]2O3)c1
  A = -5.5; B = -0.1; C = 101.3*; D = .
COc1cccc(S(=O)(=O)Nc2ccc3c(c2)[C@H]2C[C@H](CC(=O)NCc4ccccc4F)O[C@@H](CO)[C@H]2O3)c1
  A = ?; B = -0.6; C = 94.6*; D = .
COc1cccc(S(=O)(=O)Nc2ccc3c(c2)[C@H]2C[C@H](CC(=O)NCc4cccc(F)c4)O[C@H](CO)[C@H]2O3)c1
  A = -7.8; B = -0.3; C = -1.1; D = 16.1
COc1cccc(S(=O)(=O)Nc2ccc3c(c2)[C@H]2C[C@H](CC(=O)NCc4cccc(F)c4)O[C@@H](CO)[C@H]2O3)c1
  A = -1.3; B = -0.4; C = 93.7*; D = 25.8
C[C@@H]1CCCCO[C@H](CN(C)CC2CCCCC2)[C@H](C)CN([C@@H](C)CO)C(=O)c2cc(NC(=O)Cc3ccccc3)ccc2O1
  A = -2.5; B = 3.0; C = 0.4; D = 9.7
CC(C)NC(=O)Nc1ccc2c(c1)C(=O)N([C@@H](C)CO)C[C@H](C)[C@@H](CN(C)Cc1ccc(C(F)(F)F)cc1)OCCCC[C@H](C)O2
  A = -4.0; B = .; C = 0.5; D = 11.1
C[C@H](CO)N1C[C@H](C)[C@H](CN(C)C)Oc2ccc(NS(=O)(=O)c3ccc(F)cc3)cc2C1=O
  A = 28.6*; B = 0.0; C = -0.6; D = -0.8
COc1ccc(S(=O)(=O)N(C)C[C@@H]2Oc3ccc(NS(=O)(=O)c4ccccc4)cc3C(=O)N([C@H](C)CO)C[C@H]2C)cc1
  A = 132.8*; B = -0.2; C = -4.0; D = -2.6
C[C@@H]1CN([C@@H](C)CO)C(=O)c2cc(NS(=O)(=O)c3ccc(F)cc3)ccc2O[C@H]1CN(C)S(=O)(=O)c1ccccc1
  A = 2.2; B = 0.1; C = -1.2; D = 21.2
Cc1ccc(S(=O)(=O)N(C)C[C@H]2Oc3ccc(NS(=O)(=O)c4ccc(F)cc4)cc3C(=O)N([C@H](C)CO)C[C@@H]2C)cc1
  A = 81.8*; B = 1.2; C = 0.2; D = 3.9

# Compound activity: PubChem, Broad Institute
